Reference: article PMC4306921 (Scientific Reports, 2015)

Protein sequences, listed by entry. Tags and fused reporters are not part of them.
UniProt P08908, whole entry: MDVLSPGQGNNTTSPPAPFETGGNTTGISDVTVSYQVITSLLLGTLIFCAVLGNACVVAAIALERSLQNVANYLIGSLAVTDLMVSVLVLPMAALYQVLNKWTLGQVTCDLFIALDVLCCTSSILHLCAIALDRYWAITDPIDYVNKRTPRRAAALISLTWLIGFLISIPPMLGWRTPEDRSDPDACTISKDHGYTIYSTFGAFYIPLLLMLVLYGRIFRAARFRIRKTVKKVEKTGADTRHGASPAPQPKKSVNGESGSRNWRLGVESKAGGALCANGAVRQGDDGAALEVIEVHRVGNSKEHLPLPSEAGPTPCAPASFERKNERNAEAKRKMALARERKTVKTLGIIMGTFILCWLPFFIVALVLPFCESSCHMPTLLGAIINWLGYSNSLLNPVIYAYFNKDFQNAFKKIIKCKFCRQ

Biological target: 5-HT1A receptor (Homo sapiens, UniProt P08908)
Details: 5-HT1A transfected cells, co-incubated with 5-HT, 0.5 μM FSK

## CSc1ccc2c(c1)C(N1CCN(C)CC1)Cc1ccccc1S2 (stereo not shown) [Methiothepin]
  effect on 5-HT dose-response curve, CRE-luc: rightward parallel shift
